Screening results deposited in PubChem BioAssay by Broad Institute.
Shown are actives, neighbours in structure and some others; about 2.8% of the full set was active somewhere.
Yeast UUG start = modulators of yeast start codon fidelity, primary screen, whole organism, S. cerevisiae, single point, plate reader | AID 602363, 2012 | actives 0.13% (n = 350,000) | activity score, % at 18.7 µM | S. cerevisiae UUG-firefly luciferase reporter, luminescence/redox ratio;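 active means replicate mean at a twofold rise or more, about +100% in these data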;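 further: firefly luciferase made from a UUG start codon reports start codon fidelity; reporter light over untreated wells divided by growth signal over untreated wells; some hits fall short of that in this replicate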
PglD DTNB = blocks C. jejuni PglD acetyltransferase activity. purified PglD enzyme, DTNB colorimetric CoA detection. inhibition, % at 12.5 µM. 360,000 tested, 0.098% active; in the data active means inhibition above about 16%, passing the limit was not always enough; inconclusive means no clear call, values can overlap the other calls
C2C12 statin = suppression of simvastatin myotoxicity | 330,000 tested, 0.78% active | rescue of ATP level, % at 7.49 µM | C2C12 myotubes + simvastatin, ATP luminescence, 48 h; scaled: DMSO 0, geranylgeraniol control 100;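 active means mean ATP rescue above about 67%, or every replicate alone reaching that limit, limit read from the data, passing the limit was not always enough; inconclusive means no clear call, values can overlap the other calls; inactive means mean under the limit and some replicate under it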;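 further: myotubes were challenged with 10 µM simvastatin during compound exposure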
esBAF inh = inhibitors of esBAF chromatin remodeling in mouse ES cells; 350,000 tested, 2% active; AID 602393; Bmi1-luciferase knock-in reporter, 24 h; 100% = twice the neutral-well signal; reporter increase, % at 12.5 µM; in the data active means activation above about 40%; inconclusive means no clear call, values can overlap the other calls;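 further: 0% = median of the plate's neutral control wells and 100% = double that signal; a rise in the Bmi1 reporter signal indicates esBAF inhibition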
E-selectin induc = E-selectin induction on HUVECs; HUVEC E-selectin immunofluorescence imaging; normalized: neutral wells 0, TNF-alpha wells 100; 260,000 tested, 0.37% active; activation, % at 7.58 µM; AID 686992; P16581;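 active means mean E-selectin-positive cell signal at least 10% of the positive control, reached in at least 60% of replicates, without over 20% cell loss; inconclusive means no rule given, readout overlaps actives, possibly toxicity-flagged; inactive means the rest, including those meeting only one limit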
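System: HUVEC / Compound: single concentration / Signal: immunofluorescence imaging / Read-out: percent E-selectin-positive cells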
PGC1a acetyl inh = PGC1a acetylation modulation, inhibitor mode; U2OS PGC1a acetylation, AlphaScreen anti-acetyl-lysine; with virally co-expressed GCN5 acetyltransferase; inhibition, % at 15.6 µM; 350,000 tested, 0.17% active;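 active means every replicate shows inhibition of at least 40%; inconclusive means mean inhibition at least 40% but some replicate below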;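 further: 0% = neutral control wells and 100% = positive control wells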
PglD inh SP = PglD (C. jejuni) inhibition confirmation; shares compounds with PglD DTNB; Purified C. jejuni PglD, DTNB absorbance 412 nm; inhibition, % at 20 µM; 320 tested, under 10 active; AID 743156;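 active means mean inhibition across replicates of at least 20% with every single replicate also at 20% or more; inconclusive means mean inhibition at least 20% but some replicate falls below 20%; inactive means mean inhibition under 20% and not all replicates reach it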;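 further: initial rate of CoA release by acetyl transfer from AcCoA to the UDP-4-amino sugar; 0% = median of neutral control wells and 100% = median of positive control wells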
Active calls of the source: *.

Screening O=C(COc1ccc(S(=O)(=O)N2CCCCC2)cc1)N1CCCCCC1 returned Yeast UUG start 21, PglD DTNB 21*, C2C12 statin 9, esBAF inh 8, PGC1a acetyl inh -16 and PglD inh SP -5.
`O=C(Nc1ccc(C(=O)N2CCOCC2)cc1)Nc1cccc(Cl)c1` gave Yeast UUG start 16, PglD DTNB 25*, PGC1a acetyl inh -1 and PglD inh SP 3.
For O=C(Nc1ccc(OCC(=O)N2CCOCC2)cc1)Nc1cccc(Cl)c1 the results were E-selectin induc 0 and PGC1a acetyl inh 12.
For C[C@H](NC(=O)C[C@@H]1CC[C@H]2[C@@H](COC[C@H](O)CN2Cc2cc(F)ccc2F)O1)c1ccccc1 the results were Yeast UUG start -13, PglD DTNB 1, C2C12 statin 14, esBAF inh 1, E-selectin induc 0 and PGC1a acetyl inh -8.
COC(=O)C[C@H]1C[C@H]2c3cc(NC(=O)Nc4ccccc4)ccc3O[C@H]2[C@H](CO)O1 was read as PglD DTNB 1, C2C12 statin 2, esBAF inh 1, E-selectin induc 0 and PGC1a acetyl inh -2.
`OCc1ccc(N=Nc2ccccc2)cc1` gave Yeast UUG start -23, PglD DTNB 0, E-selectin induc 0 and PGC1a acetyl inh 0.
COc1ccc(N=Nc2ccc(CO)cc2)cc1 was read as Yeast UUG start -40, PglD DTNB 45*, E-selectin induc 0, PGC1a acetyl inh 3 and PglD inh SP 1.
O=C(C[C@H]1C[C@H]2c3cc(NC(=O)Nc4ccccc4F)ccc3O[C@H]2[C@@H](CO)O1)NCc1ccc2c(c1)OCO2 was read as PglD DTNB 2, C2C12 statin 3, esBAF inh -5, E-selectin induc 0 and PGC1a acetyl inh 0.
`CCCN1C[C@@H](C)[C@H](OC)CN(C)C(=O)c2ccc(NC(=O)c3ccc(F)cc3)cc2OC[C@@H]1C` gave PglD DTNB 5, C2C12 statin 8, esBAF inh 0, E-selectin induc 0 and PGC1a acetyl inh -8.
`CCN(CC)S(=O)(=O)c1ccc(NS(=O)(=O)c2cccc(C)c2)cc1` gave Yeast UUG start -15, PglD DTNB 25*, C2C12 statin 6, esBAF inh 5, PGC1a acetyl inh -26 and PglD inh SP 0.
Screening CC=Cc1ccc2n(c1=O)C[C@H]1[C@H](CO)[C@@H](C(=O)NCC3CC3)[C@@H]2N1C(=O)C1CC1 (mixture of isomers) returned PglD DTNB 3, C2C12 statin 7, esBAF inh -5 and E-selectin induc 0.
Screening Cn1c(CC(=O)Nc2ccccc2Cl)nnc1SCC(=O)Nc1nncs1 returned Yeast UUG start -11, PglD DTNB 26*, C2C12 statin 2, esBAF inh -5, E-selectin induc 0, PGC1a acetyl inh 2 and PglD inh SP 13.
`Cc1noc(C)c1NC(=O)N(C)C[C@@H]1OCCCC[C@H](C)Oc2ccc(NC(=O)Nc3ccccc3)cc2C(=O)N([C@H](C)CO)C[C@@H]1C` gave Yeast UUG start -11, PglD DTNB 4, esBAF inh -1, E-selectin induc 0 and PGC1a acetyl inh -4.
`O=C(C[C@H]1CC[C@H]2[C@@H](COC[C@@H](O)CN2Cc2nccs2)O1)NCc1ccc(F)cc1` gave PglD DTNB -2, C2C12 statin 8, esBAF inh -1, E-selectin induc 0 and PGC1a acetyl inh -4.
CCC(=O)N1C[C@@H](C)[C@@H](OC)CN(C)C(=O)c2ccc(NC(=O)NC(C)C)cc2OC[C@H]1C was read as Yeast UUG start 11, PglD DTNB -1, C2C12 statin 3, esBAF inh -3, E-selectin induc 0 and PGC1a acetyl inh 11.
O=C(NC1CCS(=O)(=O)C1)/C(=C/c1ccc(Cl)cc1)NC(=O)c1ccccc1 (stereo not drawn) was read as Yeast UUG start -4, PglD DTNB 76*, C2C12 statin -10, esBAF inh 6, PGC1a acetyl inh -6 and PglD inh SP -5.
O=C(NCC1CCCO1)/C(=C\c1ccc(Cl)cc1)NC(=O)c1ccccc1 (stereo not drawn) was read as PGC1a acetyl inh 9.
Screening COc1ccc(NC(=O)Nc2ccc3c(c2)C(=O)N([C@H](C)CO)C[C@H](C)[C@@H](CN(C)C(=O)Nc2ccc(F)cc2)O3)cc1 returned Yeast UUG start 17, PglD DTNB 1, C2C12 statin 1, esBAF inh -3, E-selectin induc 1 and PGC1a acetyl inh 4.
CC(=O)NCC(=O)OCC(=O)c1ccc(Br)cc1 was read as Yeast UUG start -8, PglD DTNB -2, C2C12 statin 14, esBAF inh 3 and PGC1a acetyl inh 12.
Screening CC(=O)NCC(=O)OCC(=O)c1ccc(Cl)cc1 returned Yeast UUG start -9, PglD DTNB 26*, C2C12 statin 1, esBAF inh -6, PGC1a acetyl inh -4 and PglD inh SP 4.
For Cn1nnc2cc(NC(=O)Nc3ccccc3F)ccc21 the results were Yeast UUG start -28, PglD DTNB 1, C2C12 statin -1, esBAF inh 22 and PGC1a acetyl inh 7.
Screening Cc1cc(NC(=O)Nc2ccccc2F)ccc1Br returned Yeast UUG start -13, PglD DTNB 40*, C2C12 statin -11, esBAF inh inconclusive, PGC1a acetyl inh -1 and PglD inh SP -1.
O=c1oc2ccccc2cc1-c1ccccc1 was read as Yeast UUG start -20, PglD DTNB 24*, E-selectin induc 0, PGC1a acetyl inh -2 and PglD inh SP -9.
For O=c1oc2ccc(Cl)cc2cc1-c1ccccc1 the results were E-selectin induc 3.

Pulled by compound from the list above (3):
O=C(NCC1CCCO1)/C(=C\c1ccc(Cl)cc1)NC(=O)c1ccccc1 (stereo not drawn) was read as PGC1a acetyl inh 9.
`O=C(C[C@H]1CC[C@H]2[C@@H](COC[C@@H](O)CN2Cc2nccs2)O1)NCc1ccc(F)cc1` gave PglD DTNB -2, C2C12 statin 8, esBAF inh -1, E-selectin induc 0 and PGC1a acetyl inh -4.
For Cn1nnc2cc(NC(=O)Nc3ccccc3F)ccc21 the results were Yeast UUG start -28, PglD DTNB 1, C2C12 statin -1, esBAF inh 22 and PGC1a acetyl inh 7.

(cont.)
For CC(C)(C)NC(=O)COC(=O)c1ccccc1Nc1ccc(SC(F)F)cc1 the results were Yeast UUG start -4, PglD DTNB 20*, E-selectin induc 0, PGC1a acetyl inh 1 and PglD inh SP inconclusive.
Screening CCC(=O)N1CC2(CCN(Cc3cccnc3)CC2)c2c(n(C)c3cc(OC)ccc23)[C@H]1CO returned E-selectin induc 0 and PGC1a acetyl inh 5.
Screening COCCNC(=O)C[C@@H]1C[C@H]2c3cc(NS(=O)(=O)c4ccc(F)cc4)ccc3O[C@H]2[C@H](CO)O1 returned Yeast UUG start 0, PglD DTNB 4, C2C12 statin -8, esBAF inh 6, E-selectin induc 1 and PGC1a acetyl inh -8.
`O=C(CN(C(=O)CNC(=O)c1cccs1)c1ccc(F)cc1)NC1CCCCC1` gave Yeast UUG start 10, PglD DTNB 25*, C2C12 statin -3, esBAF inh -5, PGC1a acetyl inh -9 and PglD inh SP 0.
